Experimental data reported in patent US9688664B2, “Modulators of fatty acid amide hydrolase” (JANSSEN PHARMACEUTICA NV, priority 2010, dated 2017).

Amino acid sequences for entries named in this document (tags omitted).
UniProt P97612, whole entry: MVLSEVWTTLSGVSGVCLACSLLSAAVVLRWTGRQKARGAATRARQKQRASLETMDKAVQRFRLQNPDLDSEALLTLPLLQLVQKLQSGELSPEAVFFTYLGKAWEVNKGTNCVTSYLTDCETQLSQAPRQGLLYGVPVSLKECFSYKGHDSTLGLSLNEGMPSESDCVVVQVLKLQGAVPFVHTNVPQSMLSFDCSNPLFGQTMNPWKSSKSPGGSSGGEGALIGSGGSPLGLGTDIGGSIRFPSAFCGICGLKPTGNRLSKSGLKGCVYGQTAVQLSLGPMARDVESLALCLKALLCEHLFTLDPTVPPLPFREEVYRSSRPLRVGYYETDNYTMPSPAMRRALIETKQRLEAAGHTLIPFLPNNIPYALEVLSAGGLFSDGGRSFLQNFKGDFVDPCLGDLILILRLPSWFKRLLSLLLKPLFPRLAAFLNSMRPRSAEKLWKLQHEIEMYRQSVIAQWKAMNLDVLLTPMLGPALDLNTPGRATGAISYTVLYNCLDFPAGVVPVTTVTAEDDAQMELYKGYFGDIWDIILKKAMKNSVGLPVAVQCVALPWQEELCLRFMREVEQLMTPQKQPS
UniProt O00519, whole entry: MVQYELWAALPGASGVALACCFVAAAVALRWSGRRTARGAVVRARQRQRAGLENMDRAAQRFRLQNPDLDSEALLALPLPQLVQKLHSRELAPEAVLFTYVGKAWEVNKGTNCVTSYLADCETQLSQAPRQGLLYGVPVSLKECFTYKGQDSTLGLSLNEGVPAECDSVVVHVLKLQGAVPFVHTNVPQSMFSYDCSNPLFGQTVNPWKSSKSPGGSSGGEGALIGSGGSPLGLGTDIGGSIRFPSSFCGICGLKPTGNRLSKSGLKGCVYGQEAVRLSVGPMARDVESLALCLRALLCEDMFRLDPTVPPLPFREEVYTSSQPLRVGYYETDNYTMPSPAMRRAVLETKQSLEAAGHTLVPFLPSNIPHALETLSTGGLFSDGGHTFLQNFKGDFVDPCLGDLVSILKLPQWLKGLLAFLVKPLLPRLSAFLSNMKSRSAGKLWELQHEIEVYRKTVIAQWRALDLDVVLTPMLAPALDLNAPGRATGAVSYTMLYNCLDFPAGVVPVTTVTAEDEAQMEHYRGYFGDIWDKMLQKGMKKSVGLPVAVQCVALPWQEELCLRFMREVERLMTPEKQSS

Tests used:
rat FAAH = rat FAAH (Rattus norvegicus (Rat), UniProt P97612); experiment: Assay Method 2: rat FAAH assay (3H-anandamide hydrolysis in cell homogenate); assay type: biochemical; conditions: average of results
Procedure: A. Transfection of Cells with Rat FAAH
(§1) A 10-cm tissue culture dish with a confluent monolayer of SK-N-MC cells was split 2 days (d) prior to transfection. Using sterile technique, the media was removed and the cells were detached from the dish by the addition of trypsin. One fifth of the cells were then placed onto a new 10-cm dish. Cells were grown in a 37° C. incubator with 5% CO2 in Minimal Essential Media Eagle with 10% Fetal Bovine Serum. After 2 d, cells were approximately 80% confluent. These cells were removed from the dish with trypsin and pelleted in a clinical centrifuge. The pellet was re-suspended in 400 μL complete media and transferred to an electroporation cuvette with a 0.4 cm gap between the electrodes. Supercoiled rat FAAH cDNA (1 μg) was added to the cells and mixed. The voltage for the electroporation was set at 0.25 kV, and the capacitance was set at 960 μF. After electroporation, the cells were diluted into complete media (10 mL) and plated onto four 10-cm dishes. Because of the variability in the efficiency of electroporation, four different concentrations of cells were plated. The ratios used were 1:20, 1:10, and 1:5, with the remainder of the cells being added to the fourth dish. The cells were allowed to recover for 24 h before adding the selection media (complete media with 600 μg/mL G418). After 10 d, dishes were analyzed for surviving colonies of cells. […]

FAAH = FAAH (Homo sapiens (Human), UniProt O00519); experiment: Assay Method 1: human FAAH assay (3H-anandamide hydrolysis in cell homogenate); assay type: biochemical; conditions: average of results
Procedure: A. Transfection of Cells with Human FAAH
as §1, with “Supercoiled human” for “Supercoiled rat”

`O=C(Nc1cccnc1)N1CCN(Cc2ccc3c(c2)OC(F)(F)O3)CC1` [Comparator Compound] gave an IC50 (rat FAAH) of 450 nM and an IC50 (FAAH) of 340 nM.
